Source: publication PMC5291514, “Structure activity relationship and modeling studies of inhibitors of lysine specific demethylase 1” (PLoS ONE, 2017)

Experiments:
[1] = biological target: recombinant human LSD1 (Homo sapiens, UniProt O60341); experiment: LSD1 enzyme inhibition, HRP-coupled Amplex red assay; format: biochemical
[2] = biological target: MAO-A and -B; experiment: Inhibition of MAO-A/-B, MAO-Glo assay kit, one range given over both enzymes; conditions: read-out: IC50 against MAO-A and -B; range over both enzymes and the named compounds; tested form: 2HCl

COc1cc(C=N[C@@H]2C[C@H]2c2ccc(Br)cc2)cc(OC)c1OC (relative stereo)
LSD1 inhibitory activity in words [1]: almost loses the inhibitory activity | IC50 ([1]; read-out: LSD1 IC50, Table 1, 30 nM LSD1, 30 min preincubation, 10 μM H3K4Me2 peptide): 94 µM

N[C@@H]1C[C@H]1c1ccc(-c2ccc(F)nc2)cc1 (relative stereo)
IC50 [2]: 0.17 to 3.1 µM | fold less active against LSD1 than the corresponding compounds 1–3 ([1]; 7 vs 1, 8 vs 2, 9 vs 3, tested form: 2HCl): 69 fold
